Experimental data reported in patent US20190308988A1, “OPIOID RECEPTOR ANTAGONIST PRODRUGS” (Nirsum Laboratories, Inc., priority 2017, published 2019).

Sequences of proteins named here, by UniProt entry; tags and fusion partners are left off. A change or cut given only in a name is not applied to a line headed by its entry.
UniProt P41145: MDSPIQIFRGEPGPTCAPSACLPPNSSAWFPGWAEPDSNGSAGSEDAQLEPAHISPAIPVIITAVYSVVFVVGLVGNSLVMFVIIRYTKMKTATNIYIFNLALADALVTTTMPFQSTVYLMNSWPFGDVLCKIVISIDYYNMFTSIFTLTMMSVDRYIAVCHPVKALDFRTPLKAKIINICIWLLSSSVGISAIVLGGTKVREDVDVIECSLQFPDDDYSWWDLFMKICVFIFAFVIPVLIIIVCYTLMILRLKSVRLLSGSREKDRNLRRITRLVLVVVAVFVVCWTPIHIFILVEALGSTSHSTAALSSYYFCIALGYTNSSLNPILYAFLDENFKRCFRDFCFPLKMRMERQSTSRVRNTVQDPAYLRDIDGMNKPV

Target: T1, KOR (Homo sapiens, UniProt P41145)
T1 construct: expressed in transfected cells
Experiment: Opioid receptor binding assay, KOR ([3H]Diprenorphine)
Details: [3H]Diprenorphine 0.3 nM
Experimental: Receptor binding assays were performed to assess the ability of compounds to inhibit binding to radiolabeled ligand. […] The general observation is that prodrug derivatization greatly reduces the binding affinity to the opioid receptors, in some cases by several orders of magnitude.
The stable cell lines were established and prepared cell membrane obtained using these cell lines.
1) Transfer 1 μl of specified concentration compound to assay plate according to the plate map for nonspecific binding. Transfer 1 μl of DMSO to assay plate according to plate map for total binding. 2) Follow the plate map. Dispense 99 μl of membrane stocks into the plate. 3) Add 100 μl of radio ligand. 4) Seal the plates. Incubate at RT for 1 hour. 5) Soak the Unifilter-96 GF/C filter plates with 50 μl of 0.3% PEI per well for at least 0.5 hour at room temperature. 6) When binding assays are completed, filter the reaction mixture through GF/C plates using Perkin Elmer Filtermate Harvester, and then wash each plate for 4 times with cold wash buffer. 7) Dry the filter plates for 1 hour at 50 degrees. 8) After drying, seal the bottom of the filter plate wells using Perkin Elmer Unifilter-96 backing seal tape. Add 50 μl of Perkin Elmer Microscint 20 cocktail. Seal top of filter plates with Perkin Elmer TopSeal-A sealing film. 9) Count ^3H trapped on filter using Perkin Elmer MicroBeta2 Reader second day. […]

Compound: C=C1CC[C@@]2(O)[C@H]3Cc4ccc(O)c5c4[C@@]2(CCN3CC2CC2)[C@H]1O5 [nalmefene, 17-cyclopropylmethyl-4,5α-epoxy-6-methylenemorphinan-3,14-diol, reference compound]
- IC50: 2 nM
